{
  "source": "patent US20260132141A1",
  "about": "“PROTEIN PHOSPHATASE 2A ACTIVATORS” (University of Florida Research Foundation, Incorporated, priority 2022, published 2026)",
  "key": {"HCT116 cells [1]": {"test_system": "HCT116 cells", "test": "combination cell viability (checkerboard assay, combination index)", "settings": "CRC cells, with oxaliplatin and 5-FU; tested form: bromide", "source_text": "FIGS. 15A-15B depict cell viability data measuring the combination index of PPA24 with Gemcitabine in HCT116. FIG. 15A depicts a heatmap of cell viability for HCT116 cells treated for 48 hrs with PPA24 and Gemcitabine in a checkerboard assay. FIG. 15B depicts combination index (CI) analysis of PPA24 with Gemcitabine in HCT116 cells, showing synergy occurring with this combination. The CI analysis was completed using SiCoDEA.\nThe combination of PPA24 and Gemcitabine, a clinically used cancer drug, in the CRC cells, worked synergistically to decrease the cell viability at lower concentrations than possible when used alone."}, "[2]": {"test_system": "NCI-60 panel of cancer cell lines", "test": "NCI-60 panel screen", "settings": "screened at 10 μM; tested form: bromide", "description": "FIG. 9 depicts the results from PPA24 screened at 10 μM in the NCI-60 panel of cancer cell lines, indicating an ability to decrease cell viability in most but not all cancer cell lines tested. The varying responses per cell line indicates PPA24 having selectivity towards certain cellular characteristics.\nFIG. 10 depicts the results from PPA27 screened at 10 μM in the NCI-60 panel of cancer cell lines, indicating a selectivity regarding the cancer cell line in which PPA27 can induce an effect."}, "CRC cells": {"test_system": "CRC cells", "test": "apoptosis measurement in CRC cells", "settings": "24 hrs at 5 μM; tested form: bromide", "description": "FIGS. 7A-7B depict measurement of apoptosis in CRC cells after treatment with PPA24, PPA27, iHPA1, and NSC49L. All the cells were treated with PPA-24, PPA-27, iHAP1, and NSC49L at concentrations of 2.5, 5, and 10 M for 24 hrs. FIG. 7A depicts apoptosis measured through Caspase 3/7 and 7-AAD staining. FIG. 7B depicts apoptosis measured through Annexin V and 7-AAD staining. Apoptosis measurement was obtained using a Muse Cell Analyzer.\nApoptosis was measured in CRC cells after treatment with PPA24, PPA27, iHPA1, and NSC49L. All the cells were treated with PPA-24, PPA-27, iHAP1, and NSC49L at concentrations of 2.5, 5, and 10 μM for 24 hrs. Apoptosis was measured through either Caspase 3/7 and 7-AAD staining or Annexin V and 7-AAD staining. Apoptosis measurement was obtained using a Muse Cell Analyzer.\n(§1) Though the exact role oxidative stress and PP2A play together is not known, in some cases reactive oxygen species (ROS) increase, decrease, or have no effect on PP2A activity. There have been links between PP2A activation leading to an increase in oxidative stress induced apoptosis. Due to this link, the ability of PPA24 to induce oxidative stress in HCT116 cells was investigated. […] This coincides with the previous apoptosis data indicating significant cell death occurring at these same conditions. (FIG. 13)"}, "[3]": {"test_system": "normal keratinocyte (HaCaT) cells", "test": "cell viability screen in noncancerous HaCaT cells", "format": "cell-based", "settings": "HaCaT versus CRC cells; tested form: bromide", "source_text": "FIGS. 14A-14C depict cell viability screen of PPA24, PPA27, iHAP1, and NSC49L in normal keratinocyte (HaCaT) (FIG. 14A) and epithelial (FHC) (FIG. 14B) cells, where the compounds were able to showcase selectivity to cancerous cells vs. noncancerous cells. FIG. 14C depicts IC50 concentrations of the compounds in the cells. Analyses were done using GraphPad Prism 7.0 Software.\nThe compounds PPA24, PPA27, iHAP1, and NSC49L were screened in noncancerous cell lines to observe the selectivity these compounds have towards cancerous cells by assessing the differences in IC50 concentrations. […] The preliminary data presented in the FHC cells, indicated more tolerability towards all of the compounds, with the exception of PPA27, as compared to CRC and HaCaT cells (FIGS. 14A-14C)."}, "HCT116 cells [4]": {"test_system": "HCT116 cells", "test": "oxidative stress (ROS) analysis, Muse Cell Analyzer", "settings": "HCT116, 24 hrs at 5 μM; tested form: bromide", "description": "FIG. 13 depicts analysis of Oxidative Stress initiated by PPA24 in CRC. HCT116 cells were treated with PPA24 at 2.5 or 5 μM for 3,6, or 24 h before measuring oxidative stress. ROS (+) cells are indicated as M2. ROS (−) cells are indicated by M1 in the above graphs. All cells were analyzed with a Muse Cell Analyzer.\nas §1"}},
  "data": [
    {"smiles": "Clc1ccc2c(c1)N(CCCC[N+]13CN4CN(CN(C4)C1)C3)c1ccccc1S2", "values": [
      {"measurement": "synergy in combination with oxaliplatin and 5-FU", "setting": "HCT116 cells [1]", "value": "no synergy was observed"},
      {"measurement": "effect on cell viability in the NCI-60 panel", "setting": "[2]", "value": "decrease cell viability in most but not all cancer cell lines tested"},
      {"measurement": "apoptosis / cell death", "setting": "CRC cells", "value": "significant cell death"},
      {"measurement": "IC50 in HaCaT cells relative to the IC50 concentration range in CRC cells", "setting": "[3]", "value": "approximately 2 fold"},
      {"measurement": "ROS positive cells", "setting": "HCT116 cells [4]", "value": "an increase in ROS positive cells"}
    ]}
  ]
}
